We go through one substance from patent US6375634B1, “APPARATUS AND METHOD TO ENCAPSULATE, KILL AND REMOVE MALIGNANCIES, INCLUDING SELECTIVELY INCREASING ABSORPTION OF X-RAYS AND INCREASING FREE-RADICAL DAMAGE TO RESIDUAL TUMORS TARGETED BY IONIZING AND NON-IONIZING RADIATION THERAPY” (Oncology Innovations, Inc., priority 1997, dated 2002).

For this data set the following is noted: in vivo.

In the case of iron dextran, the “therapeutic to toxic ratio” value is 10 to 1.
